Measurements reported in US20040241755A1, “Human cell assay to determine effect of sample compounds on Col2 enhancer expression” (Pfizer Inc., priority 2003, published 2004).

System: 48 bp Col2a1 enhancer
Assay: 48 bp Col2a1 enhancer luciferase reporter transfection assay in SW1353 cells
Assay type: cell-based, human
Details: concentration not given; data not shown
Method: Reagents were obtained from Invitrogen unless otherwise noted. SW1353 human chondrosarcoma cells (ATCC #HTB-94) were grown in DMEM 10% FBS 10 ug/ml Gentamicin and passaged (2 times a week) using with 0.25% Trypsin-EDTA.
Cells were plated at ˜10^6 cells per flask into a T-75 in 10 ml growth media or an equivalent based on culture vessel surface area, 24 hours prior to transfection. For each transfection, 24 ul of Transit (PanVera) was diluted into 250 ul OptiMEM and 12 ug of reporter plasmid Col2a1 enhancer construct (48 bp Col2a1, was added. After 15-30 minute incubation, growth media was removed from the cells, and the DNA-transfection reagent complexes diluted to a final volume of 10 ml with OptiMEM and added to the cells. Transfection media was replaced with fresh media after 7 hours. 24 hours post transfection the cells were treated with media alone or indicated factors. Cells were harvested 48 hours post-transfection and luciferase activity measured using the LucLite and the TopCount LSC plate reader (Packard).
We analyzed the activity of the 48 bp Col2a1 enhancer construct (48 bp Col2a1) in transfected SW1353 cells. SW1353 cells were transfected with a constant amount of reporter (0.25 ug), with or without increasing amounts of the Sox9 expression construct or empty vector.

B1: BMP-2: BMP growth factor (protein, UniProt P12643 283-396, looked up)
Bone morphogenetic protein 2: QAKHKQRKRLKSSCKRHPLYVDFSDVGWNDWIVAPPGYHAFYCHGECPFPLADHLNSTNHAIVQTLVNSVNSKIPKACCVPTELSAISMLYLDENEKVVLKNYQDMVVEGCGCR
B1 was tested, and the “effect on Sox9 activity / responsiveness of SW1353 cells transfected with the 48 bp Col2a1 enhancer” value was “unresponsive”.
